## Yeast mating assay 1: variants of the scFv Ab-14

Target peptide (SARS-CoV-2 spike, HR2 region): PDVDLGDISGINAS

Parent scFv Ab-14: VH joined to VL by the linker GGGGSGGGGSGGGGS. Changes lie in the light chain CDRs alone.
VH: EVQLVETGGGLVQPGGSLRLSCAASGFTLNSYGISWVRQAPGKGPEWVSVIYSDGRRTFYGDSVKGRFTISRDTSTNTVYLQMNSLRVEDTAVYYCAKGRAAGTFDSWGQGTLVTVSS
VL: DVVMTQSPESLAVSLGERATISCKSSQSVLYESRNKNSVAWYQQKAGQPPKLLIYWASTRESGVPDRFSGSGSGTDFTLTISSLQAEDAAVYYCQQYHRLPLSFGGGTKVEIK

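The library (AAYL50) carries one to three amino acid substitutions per variant, with no insertions or deletions. The assay is AlphaSeq: two haploid yeast populations carry antibody and antigen on their surface. After mating in shaken culture at 30 °C for 16 h, diploids were selected and their barcode pairs sequenced. The ratio of observed to expected reads was calibrated, replicate by replicate, on BCL2-family standards whose Kd was known from biolayer interferometry. There are three technical replicates.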

The parent's light chain CDRs are KSSQSVLYESRNKNSVA, WASTRES, QQYHRLPLS; each variant's own CDRs replace them letter for letter.
Numbers give log10(Kd / nM), so 0 is 1 nM and 3 is 1 µM. Smaller is tighter.
"ND" marks a missing value. The strain was present, yet no cells mated with the target were sequenced in that replicate, which points to weak or no binding.

| # | CDR-L1 | CDR-L2 | CDR-L3 | log10 Kd (nM) by replicate | control signals |
|---|---|---|---|---|---|
| 1 | KSSQSVLYESRNKNSVA | WASTRTS | QQYHRKPLS | 0.93 / 1.02 / 0.92 | 1/9 (4.50) |
| 2 | KSSQSVLYESRNKNSVM | AASTRES | QFYHRLPLS | ND / ND / ND | 0/9 |
| 3 | KSSQSVLYESRFKNSVA | WADTRES | QQYIRLPLS | ND / ND / ND | 1/9 (4.24) |
| 4 | KSSQSVLKESRNKNRRA | WASTRES | QQYHRLPLS | ND / ND / ND | 0/9 |
| 5 | KSSQSVLYESRNKHSVA | WASTRES | QQYHILELS | ND / 3.68 / ND | 5/9 (4.16) |
| 6 | KMSQSVLYESRNKNSVA | WAWTRES | QQRHRLPLS | 3.62 / 4.19 / ND | 2/9 (3.48) |
| 7 | KYSQSVGYESRNKNSVA | WASHRES | QQYHRLPLS | 0.78 / 0.96 / 0.94 | 6/9 (4.38) |
| 8 | KSSQSVLYESRNKDSVA | WHSTEES | QQYHRLPLS | ND / 3.72 / ND | 2/9 (3.44) |
| 9 | KSSQHVLYESRLKNSVA | WASTRES | QQYHRLPLC | 1.96 / 1.96 / 1.90 | 4/9 (4.50) |
| 10 | KSSQSILYESRNKASVA | WASTFES | QQYHRLPLS | ND / 4.08 / 5.93 | 0/9 |
| 11 | KSSRSVLYESRQKNSVA | TASTRES | QQYHRLPLS | 2.75 / 1.69 / 1.76 | 1/9 (2.33) |
| 12 | KSSQSVLYESRNKNSVA | WASTPES | QDYHNLPLS | ND / ND / ND | 0/9 |
| 13 | KSSQSMLYEERNKNSVA | WASTRES | QQYHRLPLS | 0.27 / 0.54 / 0.53 | 1/9 (4.29) |
| 14 | KSSQSDLYESRNHNSVA | WASTRES | QQYHRLPLS | 1.00 / 1.09 / 1.06 | 2/9 (4.41) |
| 15 | KSSQSVLYESRNKNSVA | WVSTRES | QQYHRRPQS | ND / 5.35 / 4.02 | 3/9 (4.32) |
| 16 | KSSQSVLYESRNKNSVA | WANTRES | VQGHRLPLS | 4.44 / 3.95 / 3.40 | 5/9 (4.50) |
| 17 | KSSQSVNYESRNKNSVA | WASTRES | GQYHRCPLS | ND / ND / ND | 1/9 (3.49) |
| 18 | KSSQSVLYESRNKNCVA | WASLRES | QQYHRLPLS | 1.78 / 1.77 / 1.99 | 1/9 (4.08) |
| 19 | KSSQSVTYELRNKNSVA | WWSTRES | QQYHRLPLS | ND / ND / ND | 1/9 (3.34) |
| 20 | KSSLSVLYESRNKNSVA | WASTREP | QQYHRLPLS | 0.44 / 0.76 / 0.71 | 1/9 (3.49) |
| 21 | KSSQSVLWESRYKNSVA | WADTRES | QQYHRLPLS | 1.50 / 1.63 / 1.47 | 1/9 (2.84) |
| 22 | KSSQSVLNESRNKNSVA | WASTRES | QMIHRLPLS | 1.87 / 1.87 / 2.04 | 8/9 (4.52) |
| 23 | KSSQSVLYESRNKNGVA | WASTRES | QQYMRLPCS | 1.94 / 3.48 / ND | 0/9 |
| 24 | KSNQSVLYESRRKNSVA | WASTRES | QQYHRLPLM | 3.63 / 2.45 / 3.41 | 3/9 (3.88) |
| 25 | KSKQSVLYESRNDNSVA | WASTRKS | QQYHRLPLS | 3.61 / 3.34 / 3.71 | 1/9 (3.98) |
| 26 | MSSQSDLYESRNKNSVA | WASTREL | QQYHRLPLS | 0.47 / 0.62 / 0.64 | 2/9 (4.40) |
| 27 | KWSQSVLYESRNKNSVV | WASTRES | QQYHRLHLS | ND / ND / ND | 1/9 (3.62) |
| 28 | KSSQSVLYESRNKESVM | WASTRES | QYYHRLPLS | 3.85 / 2.97 / ND | 6/9 (4.46) |
| 29 | KSSQSVLYESRNKNSVA | WCSTRES | QFYHRLQLS | ND / 2.87 / 3.41 | 5/9 (3.94) |
| 30 | KSSQSVLYTFRNKNSVA | WASTRES | QQYHRLPLS | 2.58 / 2.46 / 2.83 | 1/9 (4.39) |
| 31 | KSSQSVLYESRNGNSVN | WRSTRES | QQYHRLPLS | ND / ND / ND | 0/9 |
| 32 | KSSQSVLYESRNANSVA | WASTRIS | PQYHRLPLS | ND / ND / ND | 1/9 (3.20) |
| 33 | KSSGSVLYESRNKNKVA | WASTRES | WQYHRLPLS | ND / ND / ND | 2/9 (1.71) |
| 34 | KSNQSVLYESRNKNSVA | WASTRRS | QQYHRPPLS | ND / ND / ND | 1/9 (3.77) |
| 35 | KSSMSVLYESRDKNSVA | WASTRES | QQYHRKPLS | ND / ND / ND | 0/9 |
| 36 | KSSQSVSKESRNKNSVA | WASTRES | QQYHRLPLS | 0.56 / 0.78 / 0.74 | 1/9 (3.30) |
| 37 | KSSQCVLYESRNKNSVA | WAPTRES | QQYHRLPLS | 4.80 / ND / 5.09 | 4/9 (4.95) |
| 38 | KSSLSVLYESRNKNSVA | WASTRES | YQGHRLPLS | 5.05 / ND / ND | 2/9 (3.83) |
| 39 | KSSQSVLYESRNKNSVA | WASFRES | QFVHRLPLS | ND / ND / ND | 1/9 (5.51) |
| 40 | KSSQSVLYESRDKNSVS | WASTRES | PQYHRLPLS | ND / ND / ND | 0/9 |
| 41 | ESSQSVLYESRNKNDVA | WASTRES | RQYHRLPLS | 4.07 / ND / ND | 1/9 (3.49) |
| 42 | KSDQSVWYESRNKNSCA | WASTRES | QQYHRLPLS | 2.08 / ND / 2.52 | 1/9 (3.61) |
| 43 | KSSQSGLLESYNKNSVA | WASTRES | QQYHRLPLS | 0.50 / 0.72 / 0.87 | 1/9 (4.64) |
| 44 | KSSQSVLYESRNKNVYA | WASTRES | AQYHRLPLS | ND / ND / ND | 5/9 (4.61) |
| 45 | KSSQSVLYESRNKVSVA | TASTQES | QQYHRLPLS | ND / 3.69 / ND | 1/9 (3.28) |

Parent in this assay: reference entry 0.65, copy in this library 1.68.
As a blank, each scFv also met three strains without target: over library AAYL50, 18% of these pairings were detected, typically at 4.19 and seldom below 2.99. The control count says in how many pairings with the empty strains this scFv gave a signal, with their mean in brackets.

Source: Engelhart et al. 2022 (doi:10.1038/s41597-022-01779-4), MIT Lincoln Laboratory and A-Alpha Bio; data file from the FLAb repository.